The results in this text go back to article PMC3085958 (Journal of medicinal chemistry, 2011).

By UniProt entry, the sequences of proteins in these tests, tags left out.
UniProt P08908, whole entry, species assumed: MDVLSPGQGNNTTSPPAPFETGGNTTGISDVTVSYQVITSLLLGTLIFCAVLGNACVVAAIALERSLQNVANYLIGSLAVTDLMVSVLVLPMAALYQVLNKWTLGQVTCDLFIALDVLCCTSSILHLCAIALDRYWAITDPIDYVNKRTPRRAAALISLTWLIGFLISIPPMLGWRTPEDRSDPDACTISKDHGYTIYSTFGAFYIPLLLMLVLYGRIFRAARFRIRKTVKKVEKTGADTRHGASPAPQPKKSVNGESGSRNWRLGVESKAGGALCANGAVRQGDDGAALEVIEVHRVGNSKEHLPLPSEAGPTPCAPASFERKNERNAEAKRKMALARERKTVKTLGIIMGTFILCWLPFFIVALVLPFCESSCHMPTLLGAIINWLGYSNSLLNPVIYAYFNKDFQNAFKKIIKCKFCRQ

Broadly, the Ki is a measure of affinity in units of concentration, obtained from inhibition or displacement. A lower Ki goes with tighter binding.

This assay has as its target 5-HT1A (Homo sapiens, UniProt P08908). The assay can be described thus: biochemical.

The structures appear in SMILES notation.

With `COc1ccc(-c2c(C)c(C(=O)NC3(C#N)CCCCC3)nn2-c2ccccc2Br)cc1`, the Ki is 1.13 µM. That is a single-digit micromolar value.
